One compound from ChEMBL document CHEMBL1139437, “Design, synthesis, and preliminary pharmacological evaluation of 4-aminopiperidine derivatives as N-type calcium channel blockers active on pain and neuropathic pain” (J Med Chem, 2004) can be followed below.

The assay has as its target Voltage-dependent N-type calcium channel subunit alpha-1B (Rattus norvegicus) (UniProt Q02294). Description: In vitro antagonism of N-type calcium channels expressed in PC12 cells was determined as the increase in intracellular calcium influx. Background: Calcium assays in cells follow changes in intracellular calcium, usually with a dye or a luminescent sensor.

As a reminder, the IC50 is the concentration that inhibits the measured activity by half. As to `Cl.NC1CCN(C(=O)CCC(c2ccc(F)cc2)c2ccc(F)cc2)CC1`, the IC50 is 1.03 µM.
